Values quoted from earlier work in US11053300B2, “Membrane span-kinase fusion protein and the uses thereof” (VIB VZW, priority 2012, dated 2021).

Target: AGTR1 (Homo sapiens, UniProt P30556)
Conditions: reported, Kakuta et al., 2005; cited from earlier work

CCCc1nc2c(C)cc(-c3nc4ccccc4n3C)cc2n1Cc1ccc(-c2ccccc2C(=O)O)cc1 [telmisartan]
binding affinity towards AGTR1, telmisartan versus losartan: higher binding affinity
